The record followed here is ChEMBL document CHEMBL5154833, “New N-aryl-N'-aryl-/(thio)ureido-/sulfamoylamino-derivatives of alkyl/alkylcarbamoyl piperazines: Effect of structural modifications on selectivity over 5-HT1A receptor” (Eur J Med Chem, 2022).

By UniProt entry, the sequences of proteins in these tests, tags left out.
UniProt P28223, whole entry: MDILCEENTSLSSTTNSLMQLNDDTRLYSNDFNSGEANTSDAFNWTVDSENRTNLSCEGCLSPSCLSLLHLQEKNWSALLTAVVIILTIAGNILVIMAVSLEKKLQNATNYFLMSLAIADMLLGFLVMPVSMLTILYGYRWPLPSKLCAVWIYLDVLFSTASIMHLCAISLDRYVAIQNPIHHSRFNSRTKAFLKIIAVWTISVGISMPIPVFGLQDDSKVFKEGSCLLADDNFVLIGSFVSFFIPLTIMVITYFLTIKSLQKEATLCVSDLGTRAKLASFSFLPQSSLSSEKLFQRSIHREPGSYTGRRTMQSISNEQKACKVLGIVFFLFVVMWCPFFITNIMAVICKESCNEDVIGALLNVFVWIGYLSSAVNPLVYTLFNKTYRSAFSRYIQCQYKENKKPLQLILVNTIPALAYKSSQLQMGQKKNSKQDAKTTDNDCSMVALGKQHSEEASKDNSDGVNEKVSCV

For this test, the target named is 5-hydroxytryptamine receptor 2A (Homo sapiens, UniProt P28223). The test is described as follows: Binding affinity to 5-HT2AR (unknown origin) assessed as inhibition constant.

As to `Clc1cccc(N2CCNCC2)c1` [CHLOROPHENYLPIPERAZINE], the inhibition constant (Ki) is 32 nM.

Broadly, the Ki is a measure of affinity in units of concentration, obtained from inhibition or displacement.
